Results on one compound are retold here after patent publication US4699914A, “Imidazole group containing 2(1H)-pyridones and method for treating heart insufficiencies in humans” (A. Nattermann & Cie GmbH, priority 1984, dated 1987).

Each structure is given as a SMILES string.

This assay relates to human platelets. As to the kind of experiment: Inhibition of the collagen-induced platelets aggregation in vitro (method of Born). It counts as cell-based. The conditions noted are these: Platelet, read-out: IC50 (concentration which causes an aggregation inhibition of 50%). On the procedure:
The inhibition of the collagen-induced platelets aggregation in vitro was carried out by using the method of Born (Nature, 194, 927-929 (1962)) in using a platelet rich human plasma with the substances of the present invention 3,6-dimethyl-5-[-5-(1-imidazolyl)-2-thienyl]-2(1H)-pyridone-hydrochloride=C, 3,6-dimethyl-5-[4-(1-imidazolyl)phenyl]-2(1H)-pyridone-hydrochloride=D, 5-[4-(1-imidazolyl)-2-thienyl]-6-methyl-2(1H)-pyridone-hydrochloride=E in comparison with the reference substance acetylsalicyclic acid=F.

`CC(=O)Oc1ccccc1C(=O)O` [F]: the IC50 was 90 µM.
